Assay results from patent US9607202B2, “Methods of generating trophectoderm and neurectoderm from human embryonic stem cells” (UNIVERSITY OF PITTSBURGH—OF THE COMMONWEALTH SYSTEM OF …, priority 2009, dated 2017).

System: hESCs
Experiment: hESC viability and OCT4 expression in minimal induction media
Format: cell-based, human
Settings: addition to minimal induction media with or without heparin
Excerpt: A media was designed to serve as a foundation for differentiation with two criteria: high viability and minimal exogenous pluripotency factors that would otherwise compete with differentiating factors. Two candidate starting media from which to devise a minimal basal media for TE-induction studies included StemPro, used primarily for hESC pluripotency maintenance, and RPMI with KSR (Zhang et al., 2008), a TE-supportive media. […] Thus, to maintain compatibility with StemPro-cultured hESC, a DMEM/F12-based minimal induction media (MIM, Table 1) was developed by testing short-term hESC viability (FIG. 7) and OCT4 expression (FIG. 2) after systematically reintroducing cell survival, but not pluripotency, components. […] Thus, MIM with heparin (Erb's Minimal Induction Media, EMIM) became a second candidate minimal media for TE-induction studies.
One criterion for derivation of a minimal induction media was that hESCs would be viable and continue to express the OCT4 pluripotency marker. […] Thus, MIM and EMIM provided a growth factor-deficient basal media that maintained hESC-competence for lineage-specific induction in the short-term (4 days) as determined by the presence of a pluripotent hESC morphology, continued OCT4 expression (FIGS. 2B-D) and the absence of TE-, mesoderm-, and extraembryonic endoderm-induction (FIGS. 2D and 9B).

With “human recombinant albumin: human recombinant albumin media additive” the hESC survival was “reduced hESC survival”.
